Results as given in PubChem BioAssay AID620 (Sanford-Burnham Center for Chemical Genomics, 2007).
The list shows a part of the results, in another mix than the full data. The source made the active and inactive calls. No stated cut-off is given here; in the data, active means cytotoxicity above about 50%; inactive means the rest.

Experiment: HT1080 cell viability loss – fluorescence readout (AID 620);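 further: cells exposed to compound overnight then 4 h with Alamar Blue; 0% = vehicle DMSO and 100% = killing control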
Settings: at 10 µM, active compounds read high

Row | SMILES | cytotoxicity
1 | Cc1nc2ccc3ccccc3c2o1.O=[N+]([O-])c1cc([N+](=O)[O-])c(O)c([N+](=O)[O-])c1 | inactive: -6.1%
2 | COc1ccccc1OP(C)(=O)Nc1ccc(C)c(C)c1 (configuration not stated) | inactive: -2.7%
3 | Cc1c(NP(C)(=O)Oc2ccc(C(C)C)cc2)c(=O)n(-c2ccccc2)n1C (configuration not stated) | inactive: -2%
4 | CCc1ccc(OP(C)(=O)O)cc1 | inactive: 10.8%
5 | CP(=O)(Nc1ccccn1)Oc1ccccc1 (configuration not stated) | inactive: 14.6%
6 | COc1ccccc1OP(C)(=O)Nc1ccc(C)cc1C (configuration not stated) | inactive: -5.3%
7 | CN(C)CCOC(=O)C(O)(c1ccccc1)C1CCCC1 (configuration not stated) | inactive: 0.2%
8 | COc1ccc(OP(C)(=O)Nc2ccccn2)cc1 (configuration not stated) | inactive: 10.5%
9 | CP(=O)(Nc1ccc(Cl)cc1)Oc1ccc(F)cc1 (configuration not stated) | inactive: 10.4%
10 | CC(C)(C)c1ccc(OP(C)(=O)O)cc1 | inactive: 10.7%
11 | CCN(CC)CC(O)COC(=O)C(O)(c1ccccc1)C1CCCCC1 (configuration not stated) | inactive: 0.8%
12 | CP(=O)(Oc1ccccc1)N1CCOC1=O (configuration not stated) | inactive: 0.4%
13 | COc1ccccc1OP(C)(=O)Nc1c(C)n(C)n(-c2ccccc2)c1=O (configuration not stated) | inactive: 22.3%
14 | CP(=O)(OC12CC3CC(CC(C3)C1)C2)OC12CC3CC(CC(C3)C1)C2 | inactive: -46.9%
15 | CN(C)CCOC(=O)C(O)(c1ccccc1)C1CCCCC1 (configuration not stated) | inactive: 0.9%
16 | CP(=O)(Nc1ccc2c(c1)OCCO2)Oc1ccccc1 (configuration not stated) | inactive: -2.3%

Row | SMILES | cytotoxicity
17 | Cc1ccccc1NP(C)(=O)Nc1ccccc1C | inactive: 11.1%
18 | CCOP(C)(=S)SCC(=O)NC(C)(CC)C(=O)O (configuration not stated) | inactive: 5.8%
19 | CP(=O)(Nc1ccccc1F)Oc1ccccc1 (configuration not stated) | inactive: 2.7%
20 | CCN(CC)CCCOC(=O)C(O)(c1ccccc1)C1CCCCC1 (configuration not stated) | inactive: -11.1%
21 | CP(=O)(Nc1ccccc1)Oc1ccc(F)cc1 (configuration not stated) | inactive: 16.4%
22 | Cc1cc(C)cc(OP(C)(=O)Nc2ccccn2)c1 (configuration not stated) | inactive: -1.4%
23 | Cc1ccc(C)c(NP(C)(=O)Oc2ccccc2)c1 (configuration not stated) | inactive: 15.8%
24 | Cc1nc2ccc3ccccc3c2s1.O=[N+]([O-])c1cc([N+](=O)[O-])c(O)c([N+](=O)[O-])c1 | inactive: 5.9%
25 | COc1ccccc1OP(C)(=O)Nc1c(C)cccc1C (configuration not stated) | inactive: 22.6%
26 | CP(=S)(Nn1cnnc1)Oc1ccccc1 (configuration not stated) | inactive: 5.9%
27 | CCOP(C)(=S)SCC(=O)NC(C)C(=O)O (configuration not stated) | inactive: -19%
28 | CP(=O)(Nc1ccccn1)Oc1ccc(Cl)cc1 (configuration not stated) | inactive: -9.7%
29 | CP(=O)(NC(=O)Nc1ccccc1)Oc1ccccc1 (configuration not stated) | inactive: -2.8%
30 | COc1ccccc1OP(C)(=O)Nc1ccc(C)cc1 (configuration not stated) | inactive: -5.9%
31 | Cc1ccc(NP(C)(=O)Oc2ccccc2)c(C)c1 (configuration not stated) | inactive: -2.3%
32 | COc1ccc(OP(C)(=O)Nc2cccc(F)c2)cc1 (configuration not stated) | inactive: -12.6%
